Measurements as given in the NIST ThermoML archive (doi:10.1016/j.fluid.2018.07.028).

Experiment: activity coefficient (dimensionless); of the first substance listed, at infinite dilution; xn = mol fraction of the nth substance listed
Conditions: 101.33 kPa, Liquid, Chromatography, x1 = 0

CCCCOCCCC [dibutyl ether] + CCCC[P+](CCCC)(CCCC)CCCC.O=S(=O)([N-]S(=O)(=O)C(F)(F)F)C(F)(F)F
Conditions | activity coefficient
358.15 K | 4.19
368.15 K | 4.19
378.15 K | 4.19
388.15 K | 4.19
398.15 K | 4.2
408.15 K | 4.2
